Assay results taken from patent publication US6737439B2.

Sequences of proteins named here, by UniProt entry; tags and fusion partners are left off.
UniProt P11511, whole entry: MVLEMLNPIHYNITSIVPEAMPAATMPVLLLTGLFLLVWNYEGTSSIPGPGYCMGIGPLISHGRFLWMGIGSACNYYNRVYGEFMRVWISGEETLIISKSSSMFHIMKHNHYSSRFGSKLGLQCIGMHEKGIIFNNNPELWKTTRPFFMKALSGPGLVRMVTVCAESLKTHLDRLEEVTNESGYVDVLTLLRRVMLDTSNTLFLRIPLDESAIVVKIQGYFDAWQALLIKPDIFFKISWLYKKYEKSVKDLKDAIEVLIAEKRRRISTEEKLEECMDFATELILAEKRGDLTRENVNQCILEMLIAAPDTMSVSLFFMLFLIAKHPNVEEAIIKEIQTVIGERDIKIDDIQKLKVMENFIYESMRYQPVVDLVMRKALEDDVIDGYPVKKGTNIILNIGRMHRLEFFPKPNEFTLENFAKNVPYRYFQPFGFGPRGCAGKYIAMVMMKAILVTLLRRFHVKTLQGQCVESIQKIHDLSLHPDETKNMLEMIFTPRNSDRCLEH

Target: aromatase (Homo sapiens, UniProt P11511)
Assay: Assay for inhibition of aromatase activity (human placental microsomes, [1,2-3H]androstenedione)
Type: biochemical
Settings: read-out: IC50 (μM), aromatase inhibitory activity

IC50: 0.1 µM and 0.13 µM
Compound: CC(C)=CCc1cc(-c2oc3cc(O)cc(O)c3c(=O)c2O)ccc1O

Where “and” joins values, the source holds several entries; their conditions need not be identical. Identical values can stand only once.
